Values quoted from earlier work, collected in patent US9260430B2, “Use of TRPA1 antagonists to prevent or treat infections caused by biological-warfare agents” (dated 2016).
Like-named read-outs stand apart in the source and are kept apart here.

The chains behind the UniProt entries cited, without tags or fusion partners.
UniProt Q8NET8, whole entry: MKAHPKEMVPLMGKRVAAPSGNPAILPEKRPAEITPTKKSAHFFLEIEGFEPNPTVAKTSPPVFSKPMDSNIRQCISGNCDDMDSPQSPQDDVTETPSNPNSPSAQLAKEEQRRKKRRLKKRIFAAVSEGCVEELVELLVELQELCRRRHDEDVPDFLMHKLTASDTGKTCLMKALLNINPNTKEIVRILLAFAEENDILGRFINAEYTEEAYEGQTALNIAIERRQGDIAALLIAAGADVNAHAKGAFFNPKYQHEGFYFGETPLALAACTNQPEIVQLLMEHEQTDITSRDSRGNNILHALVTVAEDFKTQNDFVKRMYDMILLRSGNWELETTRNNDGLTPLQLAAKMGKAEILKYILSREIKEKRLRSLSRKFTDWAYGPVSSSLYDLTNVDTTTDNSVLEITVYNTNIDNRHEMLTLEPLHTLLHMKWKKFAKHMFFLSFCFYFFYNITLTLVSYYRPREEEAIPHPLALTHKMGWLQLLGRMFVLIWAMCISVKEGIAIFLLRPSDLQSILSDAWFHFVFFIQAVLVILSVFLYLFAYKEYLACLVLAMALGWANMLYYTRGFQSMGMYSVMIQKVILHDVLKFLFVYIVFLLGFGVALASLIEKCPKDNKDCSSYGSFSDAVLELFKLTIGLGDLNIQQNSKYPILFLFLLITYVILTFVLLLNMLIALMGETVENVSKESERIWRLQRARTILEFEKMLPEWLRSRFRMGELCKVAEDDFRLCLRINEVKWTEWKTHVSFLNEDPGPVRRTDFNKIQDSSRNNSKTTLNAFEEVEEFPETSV
UniProt Q9HBA0, whole entry: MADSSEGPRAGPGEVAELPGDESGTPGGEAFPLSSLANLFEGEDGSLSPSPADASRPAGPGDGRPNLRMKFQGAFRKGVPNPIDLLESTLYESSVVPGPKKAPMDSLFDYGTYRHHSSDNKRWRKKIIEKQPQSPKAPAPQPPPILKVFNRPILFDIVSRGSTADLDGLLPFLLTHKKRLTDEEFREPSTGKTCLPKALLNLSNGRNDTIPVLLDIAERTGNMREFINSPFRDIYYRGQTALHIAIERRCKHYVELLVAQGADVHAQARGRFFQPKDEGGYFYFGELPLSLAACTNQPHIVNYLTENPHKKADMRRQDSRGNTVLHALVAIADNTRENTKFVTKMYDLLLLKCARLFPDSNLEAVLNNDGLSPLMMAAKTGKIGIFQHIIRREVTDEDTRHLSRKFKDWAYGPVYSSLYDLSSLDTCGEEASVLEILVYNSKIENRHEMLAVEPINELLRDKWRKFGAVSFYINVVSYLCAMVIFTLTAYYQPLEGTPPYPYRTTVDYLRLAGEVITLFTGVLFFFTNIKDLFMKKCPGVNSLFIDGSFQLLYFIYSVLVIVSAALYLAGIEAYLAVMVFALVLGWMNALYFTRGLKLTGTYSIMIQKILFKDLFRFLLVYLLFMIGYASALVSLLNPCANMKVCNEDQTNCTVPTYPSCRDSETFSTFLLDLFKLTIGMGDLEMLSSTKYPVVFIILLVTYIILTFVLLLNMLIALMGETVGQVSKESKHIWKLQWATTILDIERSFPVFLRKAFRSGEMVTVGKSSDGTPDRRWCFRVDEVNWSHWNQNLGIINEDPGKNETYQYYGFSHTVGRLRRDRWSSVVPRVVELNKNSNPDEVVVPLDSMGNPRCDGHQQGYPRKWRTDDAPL
UniProt Q6RI86, whole entry: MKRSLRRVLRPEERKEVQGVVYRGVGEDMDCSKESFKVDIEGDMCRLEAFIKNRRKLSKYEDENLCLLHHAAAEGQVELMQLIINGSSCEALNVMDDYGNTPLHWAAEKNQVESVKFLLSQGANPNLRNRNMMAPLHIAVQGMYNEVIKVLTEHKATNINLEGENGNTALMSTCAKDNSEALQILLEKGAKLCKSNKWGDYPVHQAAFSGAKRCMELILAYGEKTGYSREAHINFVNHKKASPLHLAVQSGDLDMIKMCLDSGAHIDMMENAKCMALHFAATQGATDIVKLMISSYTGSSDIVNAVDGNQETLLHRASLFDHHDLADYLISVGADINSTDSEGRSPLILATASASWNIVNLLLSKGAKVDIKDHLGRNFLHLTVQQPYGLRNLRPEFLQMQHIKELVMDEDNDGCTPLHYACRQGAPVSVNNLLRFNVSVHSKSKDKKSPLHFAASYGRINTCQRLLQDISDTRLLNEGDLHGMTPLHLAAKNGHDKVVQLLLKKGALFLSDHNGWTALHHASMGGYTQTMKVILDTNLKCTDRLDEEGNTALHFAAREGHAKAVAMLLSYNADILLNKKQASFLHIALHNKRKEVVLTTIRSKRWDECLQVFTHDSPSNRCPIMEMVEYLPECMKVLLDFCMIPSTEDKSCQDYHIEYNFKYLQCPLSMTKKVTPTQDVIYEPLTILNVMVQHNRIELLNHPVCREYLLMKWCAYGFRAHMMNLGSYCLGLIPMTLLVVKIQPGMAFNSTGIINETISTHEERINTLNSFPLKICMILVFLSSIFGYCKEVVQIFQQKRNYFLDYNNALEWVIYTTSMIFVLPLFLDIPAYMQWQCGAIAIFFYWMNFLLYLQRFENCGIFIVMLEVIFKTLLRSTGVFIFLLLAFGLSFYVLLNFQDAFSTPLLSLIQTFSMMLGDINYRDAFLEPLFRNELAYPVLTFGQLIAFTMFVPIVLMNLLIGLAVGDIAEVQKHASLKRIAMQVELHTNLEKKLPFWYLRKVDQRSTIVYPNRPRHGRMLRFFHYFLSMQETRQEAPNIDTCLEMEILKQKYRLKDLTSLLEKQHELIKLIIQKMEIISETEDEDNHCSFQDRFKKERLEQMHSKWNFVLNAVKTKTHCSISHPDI
UniProt Q8NER1, whole entry: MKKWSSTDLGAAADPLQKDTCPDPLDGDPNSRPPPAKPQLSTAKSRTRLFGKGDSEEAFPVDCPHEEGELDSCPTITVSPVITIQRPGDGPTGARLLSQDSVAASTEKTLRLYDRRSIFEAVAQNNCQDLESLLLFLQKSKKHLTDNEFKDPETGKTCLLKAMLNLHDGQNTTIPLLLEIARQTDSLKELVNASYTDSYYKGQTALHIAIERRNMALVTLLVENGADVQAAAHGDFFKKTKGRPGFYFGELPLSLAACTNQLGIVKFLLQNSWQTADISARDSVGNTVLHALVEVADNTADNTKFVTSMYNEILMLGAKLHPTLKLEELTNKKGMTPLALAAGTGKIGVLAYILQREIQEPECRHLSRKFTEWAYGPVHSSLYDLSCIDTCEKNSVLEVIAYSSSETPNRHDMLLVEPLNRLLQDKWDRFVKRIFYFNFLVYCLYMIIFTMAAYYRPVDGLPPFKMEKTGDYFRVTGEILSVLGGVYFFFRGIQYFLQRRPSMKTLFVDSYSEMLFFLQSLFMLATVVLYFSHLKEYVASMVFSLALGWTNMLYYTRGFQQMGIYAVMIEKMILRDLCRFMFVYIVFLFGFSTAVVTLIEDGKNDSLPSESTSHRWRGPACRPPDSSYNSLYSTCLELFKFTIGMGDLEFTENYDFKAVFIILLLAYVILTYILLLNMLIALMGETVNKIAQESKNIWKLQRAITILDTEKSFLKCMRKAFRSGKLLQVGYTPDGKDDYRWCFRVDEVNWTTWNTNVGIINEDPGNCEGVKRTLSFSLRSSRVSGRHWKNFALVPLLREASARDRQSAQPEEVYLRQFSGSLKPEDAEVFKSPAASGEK
UniProt Q8BLA8, whole entry: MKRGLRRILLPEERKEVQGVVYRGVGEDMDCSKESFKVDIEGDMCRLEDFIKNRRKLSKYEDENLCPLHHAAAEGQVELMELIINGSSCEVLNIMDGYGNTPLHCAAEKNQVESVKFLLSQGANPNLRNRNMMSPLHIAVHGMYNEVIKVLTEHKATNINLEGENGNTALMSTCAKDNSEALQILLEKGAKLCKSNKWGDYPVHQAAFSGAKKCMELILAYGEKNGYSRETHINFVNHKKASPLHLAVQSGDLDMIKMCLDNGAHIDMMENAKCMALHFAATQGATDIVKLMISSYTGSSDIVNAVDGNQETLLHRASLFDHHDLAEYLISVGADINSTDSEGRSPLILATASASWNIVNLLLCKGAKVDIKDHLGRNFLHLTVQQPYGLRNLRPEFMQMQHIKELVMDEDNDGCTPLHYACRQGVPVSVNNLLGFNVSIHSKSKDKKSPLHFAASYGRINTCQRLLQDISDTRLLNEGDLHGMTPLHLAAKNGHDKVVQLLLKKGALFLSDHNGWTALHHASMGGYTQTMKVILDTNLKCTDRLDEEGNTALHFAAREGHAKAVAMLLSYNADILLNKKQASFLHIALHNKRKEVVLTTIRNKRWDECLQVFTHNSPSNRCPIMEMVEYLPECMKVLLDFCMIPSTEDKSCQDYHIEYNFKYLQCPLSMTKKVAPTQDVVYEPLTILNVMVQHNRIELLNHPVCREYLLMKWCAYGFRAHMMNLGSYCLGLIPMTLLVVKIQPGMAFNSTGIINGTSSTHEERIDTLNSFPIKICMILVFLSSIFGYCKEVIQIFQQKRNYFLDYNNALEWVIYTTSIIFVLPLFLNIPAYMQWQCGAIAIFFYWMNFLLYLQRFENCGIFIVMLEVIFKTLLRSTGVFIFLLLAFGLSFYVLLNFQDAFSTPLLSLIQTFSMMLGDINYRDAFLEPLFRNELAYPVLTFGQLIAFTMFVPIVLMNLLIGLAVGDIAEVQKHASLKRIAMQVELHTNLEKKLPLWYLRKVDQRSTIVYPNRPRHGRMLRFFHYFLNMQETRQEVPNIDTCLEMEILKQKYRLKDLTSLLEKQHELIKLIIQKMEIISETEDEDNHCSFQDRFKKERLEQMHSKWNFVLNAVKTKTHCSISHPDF
UniProt O75762, whole entry: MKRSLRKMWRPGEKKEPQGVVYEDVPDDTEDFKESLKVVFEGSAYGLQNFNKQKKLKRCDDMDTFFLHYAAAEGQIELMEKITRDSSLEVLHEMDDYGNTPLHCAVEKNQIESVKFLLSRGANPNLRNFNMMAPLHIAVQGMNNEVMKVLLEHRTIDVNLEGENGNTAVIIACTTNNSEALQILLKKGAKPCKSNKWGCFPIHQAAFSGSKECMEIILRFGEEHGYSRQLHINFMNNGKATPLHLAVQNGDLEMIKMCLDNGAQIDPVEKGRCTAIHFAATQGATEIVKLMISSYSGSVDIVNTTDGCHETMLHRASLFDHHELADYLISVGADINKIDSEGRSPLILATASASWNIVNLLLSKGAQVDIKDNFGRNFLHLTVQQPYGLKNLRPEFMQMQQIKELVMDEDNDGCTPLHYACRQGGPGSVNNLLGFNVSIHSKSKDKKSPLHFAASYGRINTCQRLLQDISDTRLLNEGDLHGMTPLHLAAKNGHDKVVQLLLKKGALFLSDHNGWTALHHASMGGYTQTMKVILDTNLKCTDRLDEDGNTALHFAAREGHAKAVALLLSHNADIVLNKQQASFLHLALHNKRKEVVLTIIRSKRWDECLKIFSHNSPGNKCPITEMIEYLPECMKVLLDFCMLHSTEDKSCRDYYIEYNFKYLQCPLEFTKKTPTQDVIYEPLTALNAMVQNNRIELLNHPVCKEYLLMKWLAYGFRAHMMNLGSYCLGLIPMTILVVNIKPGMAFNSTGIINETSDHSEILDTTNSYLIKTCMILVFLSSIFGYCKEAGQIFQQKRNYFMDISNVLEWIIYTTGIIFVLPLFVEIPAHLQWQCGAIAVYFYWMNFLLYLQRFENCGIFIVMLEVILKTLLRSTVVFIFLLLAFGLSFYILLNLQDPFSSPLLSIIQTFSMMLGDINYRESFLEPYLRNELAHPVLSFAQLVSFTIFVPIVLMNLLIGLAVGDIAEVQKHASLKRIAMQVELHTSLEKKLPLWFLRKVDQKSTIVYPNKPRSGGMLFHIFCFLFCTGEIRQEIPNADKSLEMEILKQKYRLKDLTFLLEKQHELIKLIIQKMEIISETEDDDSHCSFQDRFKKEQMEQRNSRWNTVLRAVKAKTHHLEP

How the values were obtained:
TRPV3 = TRPV3 (Homo sapiens, UniProt Q8NET8); settings: patch clamp
TRPV4 = TRPV4 (Homo sapiens, UniProt Q9HBA0); settings: patch clamp
TRPA1 [1] = target: T1, TRPA1 (Rattus norvegicus, UniProt Q6RI86); settings: rats, 300 mg/kg i.p.
TRPA1 [2] = target: T1, TRPA1; settings: SNL model
TRPA1 [3] = target: TRPA1 (Cavia porcellus, UniProt H0VJD1); settings: guinea pigs
NaV1.2 = NaV1.2 (Homo sapiens, UniProt Q99250); settings: patch clamp
TRPA1 [4] = target: T1, TRPA1; settings: CFA model, oral 100 mg/kg
human TRPV1 = human TRPV1 (Homo sapiens, UniProt Q8NER1); settings: patch clamp
TRPA1 [5] = target: T2, TRPA1 (Mus musculus, UniProt Q8BLA8); settings: i.p. 200 mg/kg per day for 4 days during ovalbumin challenge
hERG = hERG (Homo sapiens, UniProt Q12809); settings: patch clamp
TRPA1 [6] = target: T1, TRPA1; settings: rat formalin model, i.p.
rat DRG cells = settings: cultured rat DRG cells
TRPA1 [7] = target: T1, TRPA1; settings: local administration, rats
TRPA1 [8] = target: T2, TRPA1; settings: local administration, mice
TRPA1 [9] = system: TRPA1
TRPA1 [10] = settings: in vivo
TRPA1 [11] = target: TRPA1 (Homo sapiens, UniProt O75762); settings: read-out: IC50, TRPA1 antagonist

For `CC(C)c1ccc(NC(=O)Cn2cnc3c2c(=O)n(C)c(=O)n3C)cc1`, the “block of currents mediated by TRPV3” value (TRPV3) is given as “does not block”, the “block of currents mediated by TRPV4” value (TRPV4) is given as “does not block” and the “AITC (4)-induced flinching” value (TRPA1 [1]) is given as “significantly reduced”. The “reversal of mechanical hypersensitivity” value (TRPA1 [2]; oral 100 mg/kg) was 24%, the “reversal of mechanical hypersensitivity” value (TRPA1 [2]; oral 300 mg/kg) was 45% and the “pro-tussive effects of TRPA1 agonists” value (TRPA1 [3]) was “inhibited”. The “block of currents mediated by NaV1.2” value (NaV1.2) was “does not block”, the “reversal of mechanical hypersensitivity” value (TRPA1 [4]) was 28% and the “block of currents mediated by human TRPV1” value (human TRPV1) was “does not block”. For the same compound, the airway hyper-reactivity (TRPA1 [5]) was “complete suppression”, the “block of currents mediated by hERG” value (hERG) was “does not block” and the “number of flinches in phase I and IIa” value (TRPA1 [6]) was “dose-dependently reduces”. For the same compound, the “increases in intracellular calcium concentration evoked by AITC (4) or formaldehyde” value (rat DRG cells) was “blocks”.
For `CC(=Cc1ccc(Cl)cc1)C(C)=NO`, the CFA-induced cold allodynia (TRPA1 [7]) is given as “reverses”, the “selectivity for modulation of TRPA1 with respect to TRPV1 to TRPV4 and TRPM8” value (TRPV1 to TRPV4 and TRPM8) is given as “selective” and the “development of CFA-induced mechanical hyperalgesia” value (TRPA1 [8]) is given as “significantly reduces”. The “nociceptive behaviour caused by CFA (3) injection” value (TRPA1 [8]) was “significantly reduces” and the “effect in TRPA1 knockout mice” value (TRPA1 [9]) was “without effect”.
For `Cn1c(=O)c2c(CC(=O)Nc3nc(-c4ccc(Cl)cc4)cs3)cccc2n(C)c1=O`, the “efficacy in multiple pain models” value (TRPA1 [10]) is given as “efficacious” and the IC50 (TRPA1 [11]) is given as less than 0.1 µM.
